Here are results for 3 compounds from ChEMBL document CHEMBL1142779, “Synthesis and in vitro pharmacological studies of new C(2) modified salvinorin A analogues” (2005).

The chains behind the UniProt entries cited, without tags or fusion partners. Where a name states a change or a piece, a line headed by the entry shows the natural chain unless it says otherwise.
UniProt P41145: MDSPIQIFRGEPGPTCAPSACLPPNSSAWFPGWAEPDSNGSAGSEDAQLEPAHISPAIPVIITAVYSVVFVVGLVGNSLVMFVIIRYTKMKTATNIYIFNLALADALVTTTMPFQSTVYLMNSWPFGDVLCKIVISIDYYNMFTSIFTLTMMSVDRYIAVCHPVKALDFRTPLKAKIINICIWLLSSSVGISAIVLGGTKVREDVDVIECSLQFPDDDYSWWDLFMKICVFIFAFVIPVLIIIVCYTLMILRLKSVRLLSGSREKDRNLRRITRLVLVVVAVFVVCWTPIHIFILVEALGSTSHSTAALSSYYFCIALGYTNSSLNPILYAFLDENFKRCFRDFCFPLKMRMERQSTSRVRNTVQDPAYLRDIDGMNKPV

Several values for one entry are separate records, joined by “and”; a condition that tells them apart may be missing. Identical values can stand only once.

The target in the assay is Kappa-type opioid receptor (Homo sapiens) (UniProt P41145). Description: Efficacy for maximal response against human k-opioid receptor.

On to `COCO[C@H]1C[C@@H](C(=O)OC)[C@]2(C)CC[C@H]3C(=O)O[C@H](c4ccoc4)C[C@]3(C)C2C1=O` (stereo partly drawn), for which the Efficacy is 98% and 100%.
As for `CN(C(=O)Cc1ccc(Cl)c(Cl)c1)C1CCCCC1N1CCCC1` (stereo not drawn), the Efficacy is 100%.
Regarding `COC(=O)[C@@H]1C[C@H](O)C(=O)C2[C@@]1(C)CC[C@H]1C(=O)O[C@H](c3ccoc3)C[C@]21C` (stereo partly drawn), the Efficacy is 102% and 97%.
